Data on 1 molecule can be found in paper PMC8228537, “Acrylonitrile Derivatives against Trypanosoma cruzi: In Vitro Activity and Programmed Cell Death Study” (Pharmaceuticals, 2021).

Structures are written as SMILES.

The nature of the series: Cytotoxicity, alamarBlue, murine macrophages. It is filed as cell-based. The note with it: mouse, J774A.1 murine macrophages, mean ± SD. Here is the method: The cytotoxicity was evaluated against murine macrophages (J774A.1) using the same method mentioned in the antiparasitic assay, based on the alamarBlue Cell Viability Reagent®. In a sterile 96-well plate, 10^4 cells per well were added, then, after the complete adhesion, serial dilutions of the 32 compounds, using a deep well plate, and a 10% of alamarBlue® were joined.

As a reminder, the CC50 is the concentration that lowers cell viability or growth by half. In turn, `CCOP(=O)(/C=C/C#N)OCC` [Compound Q18, (E)-Diethyl 2-cyanovinylphosphonate] yielded a CC50 at 24 h of 34.4 ± 1 µM.
